Yeast mating assay 1: variants of the scFv Ab-14

Target peptide (SARS-CoV-2 spike, HR2 region): PDVDLGDISGINAS

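The starting antibody came from a phage panning campaign against this peptide. In library AAYL50, one, two or three CDR residues were substituted; doubles and triples were drawn at random. In AlphaSeq, yeast of one mating type display the scFv and yeast of the other type display the target. Pairs that bind mate more often; barcode pairs of the diploids are counted by sequencing. Read counts were normalised to the haploid input and turned into Kd by a linear fit to BCL2-family pairs of known affinity, for each replicate. Mating was done three times.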

Parent: Ab-14, a human scFv built as VH, a (GGGGS)3 linker, VL. Only the CDRs of the light chain vary.
VH: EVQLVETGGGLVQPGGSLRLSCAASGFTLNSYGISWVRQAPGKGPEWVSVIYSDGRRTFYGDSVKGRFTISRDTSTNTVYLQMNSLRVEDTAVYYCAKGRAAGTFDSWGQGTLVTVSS
VL: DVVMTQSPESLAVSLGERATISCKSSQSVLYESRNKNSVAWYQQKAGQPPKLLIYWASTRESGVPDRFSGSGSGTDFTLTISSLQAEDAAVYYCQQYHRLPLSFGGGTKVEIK

The parent's light chain CDRs are KSSQSVLYESRNKNSVA, WASTRES, QQYHRLPLS; each variant's own CDRs replace them letter for letter. This list gathers variants with a substitution at Q95 (VL, numbered from residue 1). Each Kd is an estimate from the mating assay, the geometric mean of the replicates in which the pair was seen; lower is stronger. "no signal" marks a missing value. The strain was present, yet no cells mated with the target were sequenced in any replicate, which points to weak or no binding. Parent in this assay: reference entry 4.4 nM, copy in this library 48 nM. As a blank, each scFv also met three strains without target: over library AAYL50, 18% of these pairings were detected, typically at 15 µM and seldom below 970 nM.

* KSSQSVLYESRNKNSVY | WASTREV | MQYHRLPLS = 5.3 µM (1 of 3 replicates)
* KSSQSVLYESRNKNSPA | WASTRES | KQCHRLPLS = 14 µM (1 of 3 replicates)
* KSSQSVLYESRNDISVA | WASTRES | AQYHRLPLS = no signal (0 of 3 replicates)
* KSTQSVLYESRNKNSVA | WCSTRES | CQYHRLPLS = 14 µM (1 of 3 replicates)
* KSSQSVLYESQNKNSVA | WASTFES | GQYHRLPLS = 130 µM (1 of 3 replicates)
* KSSQSVLYESRNHNSVA | WASTRES | SQYHRLPLR = 12 µM (1 of 3 replicates)
* KSSMSVLYESRNKNSNA | WASTRES | WQYHRLPLS = no signal (0 of 3 replicates)
* KSSQSVLYESRNKNSVK | WASTRES | RQYHRCPLS = 9.6 µM (2 of 3 replicates)
* KSSQSVLYESRNMNSVA | WASTRES | VQYVRLPLS = 7.7 nM (3 of 3 replicates)
* KSSQSVLYESRNKNSVA | CASTRES | SQYHCLPLS = 76 µM (2 of 3 replicates)
* KSSQSVLYESRNKNSVA | WASTRES | KQYHRLPLS = 14 µM (3 of 3 replicates)
* KSSQSVLYESRNKNDVA | WASTPES | NQYHRLPLS = no signal (0 of 3 replicates)
* KSSQSVLYESRNKGSVA | WASTRES | AQYHRLPLS = 2.5 µM (3 of 3 replicates)
* KSSQSVLYESRNKNSVA | WASTREQ | CHYHRLPLS = 82 µM (2 of 3 replicates)
* KSSQSVLYESRRKNSVA | WASTRES | VQYRRLPLS = no signal (0 of 3 replicates)
* KSSQSVLYESRNKNSVD | WASTRES | TQYHRLALS = 3.2 µM (1 of 3 replicates)
* KVSQSVLYESRNKNSVA | WASTRES | SQYHRLPLS = 3.7 nM (3 of 3 replicates)
* KSSQSVLYESRNKNSVK | WASTRES | WQYHRLPLS = 5.6 µM (1 of 3 replicates)
* KRSQSVLYESRNKNSVA | WASTRES | FHYHRLPLS = 3.7 µM (3 of 3 replicates)
* KSSQSVLYESVNKNSVA | WASTRES | YQYHRLPCS = 3.2 nM (3 of 3 replicates)
* KSSQSVLYESRNKNSVA | WASTGES | DQYMRLPLS = 180 µM (2 of 3 replicates)
* KSSQSVHYESRNKNSVA | WASTRES | HQYHRLPLP = 430 nM (3 of 3 replicates)
* KSSQSVLYESRNKNAVG | WASTRES | CQYHRLPLS = no signal (0 of 3 replicates)
* HSSQSVLYESRYKNSVA | WASTRES | CQYHRLPLS = 260 nM (3 of 3 replicates)
* KSSQSVLYESRNKNSVA | WFSTRES | VQYHRCPLS = 110 µM (1 of 3 replicates)
* KSSQSVLYWSRNKNSVA | WASTRES | FQYHRLMLS = 270 nM (3 of 3 replicates)
* KSSQSVLYESRSKNSQA | WASTRES | PQYHRLPLS = 160 µM (1 of 3 replicates)
* KSSQSVLYESRYKNSVA | WASTRES | SQYHRGPLS = 6.1 µM (2 of 3 replicates)
* KSSQSVLYESRNKNSVA | WASTRES | RQYHRLWLS = 220 nM (3 of 3 replicates)
* KSSQSVLYEQRNKNSVA | LASTRES | CQYHRLPLS = 1.4 µM (3 of 3 replicates)
* KSSQRVVYESRNKNSVA | WASTRES | EQYHRLPLS = 580 nM (2 of 3 replicates)
* KSSESVLYESRNKNSVA | WASTREH | WQYHRLPLS = 4.5 nM (3 of 3 replicates)
* KSSQSVLYESRNKNSVA | WASTRES | WCYHRLTLS = 36 nM (3 of 3 replicates)
* KSSQSVLYESENKNSVA | WASRRES | RQYHRLPLS = no signal (0 of 3 replicates)
* KSSDSVWYESRNKNSVA | WASTRES | AQYHRLPLS = 49 nM (3 of 3 replicates)
* TSSQSVLYESRNKNQVA | WASTRES | GQYHRLPLS = 820 µM (1 of 3 replicates)
* CSSQSVLYESRNKNSVA | WASTRES | PQYHRLPLS = 270 nM (3 of 3 replicates)
* KSSPSVLYESRNKNSVA | WASTRES | NQYHRLNLS = no signal (0 of 3 replicates)
* KSAQSVLYISRNKNSVA | WASTRES | CQYHRLPLS = no signal (0 of 3 replicates)
* QSSQSVLYESRNKNSVA | YASTRES | HQYHRLPLS = 7.3 µM (1 of 3 replicates)
* KSSQSVLYESRNKNSVA | WYSTRES | IIYHRLPLS = no signal (0 of 3 replicates)
* KSSQSVLYESRNKNSDA | WASTRES | PQYHRLPSS = 4.4 µM (1 of 3 replicates)
* KSSQSVLYEWRNKNSVA | WASTRES | IQYHRLPLS = 34 µM (1 of 3 replicates)
* KSSQSVLFESRNKNSVA | CASTRES | PQYHRLPLS = 53 nM (3 of 3 replicates)

The first 4 entries again:

* KSSQSVLYESRNKNSVY | WASTREV | MQYHRLPLS = 5.3 µM (1 of 3 replicates)
* KSSQSVLYESRNKNSPA | WASTRES | KQCHRLPLS = 14 µM (1 of 3 replicates)
* KSSQSVLYESRNDISVA | WASTRES | AQYHRLPLS = no signal (0 of 3 replicates)
* KSTQSVLYESRNKNSVA | WCSTRES | CQYHRLPLS = 14 µM (1 of 3 replicates)

Data: MIT Lincoln Laboratory AlphaSeq set, Engelhart et al. 2022, doi:10.1038/s41597-022-01779-4, as distributed in FLAb.